How the values were obtained:
[1] = target: Receptor-type tyrosine-protein phosphatase alpha (Homo sapiens, UniProt P18433); experiment: Inhibition of human PTPalpha expressed in Escherichia coli after 5 mins by microplate spectrophotometer analysis
[2] = target: Tyrosine-protein phosphatase non-receptor type 11 (Homo sapiens, UniProt Q06124); experiment: Inhibition of human SHP2 expressed in Escherichia coli after 5 mins by microplate spectrophotometer analysis
[3] = target: T1, Protein tyrosine phosphatase type IVA 1 (Homo sapiens, UniProt Q93096); experiment: Inhibition of human PRL1 expressed in Escherichia coli after 5 mins by microplate spectrophotometer analysis
T1 sequence (Q93096 whole entry): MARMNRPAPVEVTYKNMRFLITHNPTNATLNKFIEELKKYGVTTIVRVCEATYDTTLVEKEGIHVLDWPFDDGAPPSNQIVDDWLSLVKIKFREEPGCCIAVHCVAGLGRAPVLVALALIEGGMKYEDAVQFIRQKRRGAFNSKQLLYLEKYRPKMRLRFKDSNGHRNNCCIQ

Amino acid sequences for entries named in this document (tags omitted). A change or cut given only in a name is not applied to a line headed by its entry.
UniProt P18433: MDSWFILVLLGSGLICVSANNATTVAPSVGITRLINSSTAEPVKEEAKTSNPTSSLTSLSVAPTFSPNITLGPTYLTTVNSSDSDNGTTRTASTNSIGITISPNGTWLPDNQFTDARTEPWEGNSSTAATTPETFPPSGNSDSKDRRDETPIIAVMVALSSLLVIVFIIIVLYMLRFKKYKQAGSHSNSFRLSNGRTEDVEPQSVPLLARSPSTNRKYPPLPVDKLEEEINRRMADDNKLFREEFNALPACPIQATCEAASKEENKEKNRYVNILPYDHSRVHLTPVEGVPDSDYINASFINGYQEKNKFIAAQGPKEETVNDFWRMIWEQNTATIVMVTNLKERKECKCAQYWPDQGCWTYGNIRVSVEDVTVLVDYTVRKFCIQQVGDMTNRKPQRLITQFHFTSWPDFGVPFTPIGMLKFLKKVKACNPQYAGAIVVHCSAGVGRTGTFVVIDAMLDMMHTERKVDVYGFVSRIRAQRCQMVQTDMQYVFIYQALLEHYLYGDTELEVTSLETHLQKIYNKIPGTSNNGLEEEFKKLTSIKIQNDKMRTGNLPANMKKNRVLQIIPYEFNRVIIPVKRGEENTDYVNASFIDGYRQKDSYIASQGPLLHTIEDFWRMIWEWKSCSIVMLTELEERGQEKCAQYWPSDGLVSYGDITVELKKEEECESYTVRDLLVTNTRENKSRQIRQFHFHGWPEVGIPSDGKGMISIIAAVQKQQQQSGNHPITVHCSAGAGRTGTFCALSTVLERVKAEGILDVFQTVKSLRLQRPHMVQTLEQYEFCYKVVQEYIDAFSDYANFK
UniProt Q06124, whole entry: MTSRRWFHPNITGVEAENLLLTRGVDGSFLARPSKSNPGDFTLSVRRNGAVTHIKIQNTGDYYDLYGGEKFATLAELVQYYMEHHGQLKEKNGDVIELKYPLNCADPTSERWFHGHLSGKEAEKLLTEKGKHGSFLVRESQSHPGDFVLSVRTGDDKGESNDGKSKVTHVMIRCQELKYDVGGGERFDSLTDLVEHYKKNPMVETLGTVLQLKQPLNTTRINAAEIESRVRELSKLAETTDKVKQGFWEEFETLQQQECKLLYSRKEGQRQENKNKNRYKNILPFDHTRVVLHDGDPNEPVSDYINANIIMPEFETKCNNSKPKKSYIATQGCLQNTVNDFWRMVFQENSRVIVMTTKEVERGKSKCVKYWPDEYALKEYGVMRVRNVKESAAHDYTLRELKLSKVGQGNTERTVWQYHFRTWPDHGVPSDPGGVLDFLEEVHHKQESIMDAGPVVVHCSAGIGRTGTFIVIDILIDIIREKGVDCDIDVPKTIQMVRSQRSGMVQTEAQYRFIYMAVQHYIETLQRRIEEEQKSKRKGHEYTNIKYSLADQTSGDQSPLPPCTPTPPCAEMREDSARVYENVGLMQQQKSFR
UniProt Q9Y2R2, whole entry: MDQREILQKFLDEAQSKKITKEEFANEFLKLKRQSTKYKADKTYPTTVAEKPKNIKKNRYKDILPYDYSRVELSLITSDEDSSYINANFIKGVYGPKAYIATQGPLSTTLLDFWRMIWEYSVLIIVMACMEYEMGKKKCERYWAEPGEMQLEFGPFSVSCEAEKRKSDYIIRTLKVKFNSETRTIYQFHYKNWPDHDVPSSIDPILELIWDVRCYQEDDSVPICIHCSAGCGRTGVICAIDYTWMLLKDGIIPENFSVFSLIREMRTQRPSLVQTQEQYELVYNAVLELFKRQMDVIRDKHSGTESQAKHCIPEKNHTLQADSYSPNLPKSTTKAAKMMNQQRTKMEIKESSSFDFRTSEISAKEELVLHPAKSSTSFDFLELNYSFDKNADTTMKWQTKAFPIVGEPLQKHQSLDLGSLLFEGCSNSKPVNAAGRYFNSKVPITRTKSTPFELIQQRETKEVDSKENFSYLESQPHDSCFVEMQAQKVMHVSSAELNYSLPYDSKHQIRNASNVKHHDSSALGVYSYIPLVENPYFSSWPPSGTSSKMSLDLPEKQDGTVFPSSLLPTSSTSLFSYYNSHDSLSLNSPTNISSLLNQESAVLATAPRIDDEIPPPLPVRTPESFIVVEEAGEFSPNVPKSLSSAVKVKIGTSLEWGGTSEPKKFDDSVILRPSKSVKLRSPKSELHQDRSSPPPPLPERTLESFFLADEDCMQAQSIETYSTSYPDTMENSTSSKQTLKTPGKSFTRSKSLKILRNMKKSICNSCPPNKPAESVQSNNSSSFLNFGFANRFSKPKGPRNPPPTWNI

[4] = target: Tyrosine-protein phosphatase non-receptor type 22 (Homo sapiens, UniProt Q9Y2R2); experiment: Inhibition of human Lyp expressed in Escherichia coli after 5 mins by microplate spectrophotometer analysis

Compound	IC50 [1]	IC50 [2]	IC50 [3]	IC50 [4]
CC(NC(=O)C(=O)NCc1cccnc1)C(c1cccs1)N1CCN(c2ccc(F)cc2)CC1 (stereo unspecified)	> 50 µM	> 50 µM	–	–
COc1ccc(N2CCN(C(c3cccs3)C(C)NC(=O)C(=O)NCc3ccco3)CC2)cc1 (stereo unspecified)	> 50 µM	–	> 50 µM	> 50 µM
CCCCc1ccc(NS(=O)(=O)c2ccc3c4c(cccc24)C(=O)N3)cc1	–	–	–	> 50 µM

From ChEMBL document CHEMBL1773067
